Data on 15 compounds can be found in ChEMBL document CHEMBL3774368, “1,2,4-Triazolyl octahydropyrrolo[2,3-b]pyrroles: A new series of potent and selective dopamine D3 receptor antagonists” (Bioorg Med Chem, 2016).

Chains of the proteins cited; added tags and fusions are not shown. Lines headed by an entry give the natural chain unless they say otherwise; changes in a name come on top.
UniProt P35462, whole entry: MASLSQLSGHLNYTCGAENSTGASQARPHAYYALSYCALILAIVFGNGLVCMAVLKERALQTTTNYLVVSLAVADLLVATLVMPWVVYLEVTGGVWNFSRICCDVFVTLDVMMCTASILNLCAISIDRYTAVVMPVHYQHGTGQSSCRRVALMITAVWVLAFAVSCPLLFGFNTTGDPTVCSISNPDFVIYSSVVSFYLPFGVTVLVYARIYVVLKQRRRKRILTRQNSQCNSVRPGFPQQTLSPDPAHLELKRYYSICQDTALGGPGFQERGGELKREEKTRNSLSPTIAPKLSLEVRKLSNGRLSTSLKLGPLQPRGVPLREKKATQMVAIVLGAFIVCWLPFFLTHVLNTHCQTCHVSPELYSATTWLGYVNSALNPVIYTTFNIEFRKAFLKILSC
UniProt Q12809: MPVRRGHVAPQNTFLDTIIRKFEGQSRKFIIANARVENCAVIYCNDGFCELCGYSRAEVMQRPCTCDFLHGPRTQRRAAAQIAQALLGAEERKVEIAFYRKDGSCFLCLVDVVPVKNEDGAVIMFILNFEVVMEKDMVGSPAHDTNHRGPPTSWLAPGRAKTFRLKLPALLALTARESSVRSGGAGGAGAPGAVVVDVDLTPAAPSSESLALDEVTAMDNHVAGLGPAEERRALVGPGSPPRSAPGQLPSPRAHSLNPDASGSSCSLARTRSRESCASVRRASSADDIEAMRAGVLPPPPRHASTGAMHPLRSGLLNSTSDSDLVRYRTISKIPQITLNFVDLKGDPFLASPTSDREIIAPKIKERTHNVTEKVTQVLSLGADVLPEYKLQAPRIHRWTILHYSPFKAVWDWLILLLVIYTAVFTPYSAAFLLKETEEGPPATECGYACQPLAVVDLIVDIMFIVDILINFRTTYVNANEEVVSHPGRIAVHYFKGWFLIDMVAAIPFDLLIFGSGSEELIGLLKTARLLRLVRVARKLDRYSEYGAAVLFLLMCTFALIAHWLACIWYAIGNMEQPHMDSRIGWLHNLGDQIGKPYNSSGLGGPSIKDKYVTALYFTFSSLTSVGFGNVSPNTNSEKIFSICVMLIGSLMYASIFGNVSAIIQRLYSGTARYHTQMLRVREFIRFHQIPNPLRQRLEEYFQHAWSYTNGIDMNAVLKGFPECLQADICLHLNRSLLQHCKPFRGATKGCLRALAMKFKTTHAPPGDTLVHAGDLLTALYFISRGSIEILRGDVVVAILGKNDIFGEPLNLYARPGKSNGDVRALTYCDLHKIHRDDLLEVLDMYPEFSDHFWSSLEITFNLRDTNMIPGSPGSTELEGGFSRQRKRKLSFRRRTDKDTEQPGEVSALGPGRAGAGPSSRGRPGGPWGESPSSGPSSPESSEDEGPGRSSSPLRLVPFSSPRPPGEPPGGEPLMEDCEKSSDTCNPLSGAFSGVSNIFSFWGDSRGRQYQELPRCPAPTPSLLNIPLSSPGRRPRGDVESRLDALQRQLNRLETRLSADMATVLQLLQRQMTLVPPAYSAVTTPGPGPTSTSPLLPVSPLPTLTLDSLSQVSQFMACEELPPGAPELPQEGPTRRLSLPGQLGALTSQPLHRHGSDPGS
UniProt P14416, whole entry: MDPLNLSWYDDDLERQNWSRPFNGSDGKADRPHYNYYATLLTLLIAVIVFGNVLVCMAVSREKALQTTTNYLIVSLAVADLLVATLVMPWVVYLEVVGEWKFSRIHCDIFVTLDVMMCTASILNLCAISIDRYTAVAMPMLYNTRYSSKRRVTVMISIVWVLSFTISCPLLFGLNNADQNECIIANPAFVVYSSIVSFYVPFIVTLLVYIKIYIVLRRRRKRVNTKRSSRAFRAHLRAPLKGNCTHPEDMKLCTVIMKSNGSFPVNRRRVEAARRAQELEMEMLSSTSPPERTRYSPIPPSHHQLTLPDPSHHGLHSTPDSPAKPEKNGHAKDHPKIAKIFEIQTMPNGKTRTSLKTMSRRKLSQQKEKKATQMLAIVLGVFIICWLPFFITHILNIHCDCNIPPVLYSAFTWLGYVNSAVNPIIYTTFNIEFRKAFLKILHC

SMILES strings stand for the structures.

In one assay the target is T1, D(3) dopamine receptor (Homo sapiens, UniProt P35462). Description: Antagonist activity at human dopamine D3 receptor expressed in CHO-K1 cell membranes after 90 mins by [35S]GTP-gamma-S binding assay in presence of 3 nM quinelorane. Background: GTPγS is a poorly hydrolysed GTP analogue; its binding reports G protein activation.
The term Ki denotes a dissociation constant, usually derived from enzyme kinetics or from competition with a known ligand. For the compound `Cc1ncoc1-c1nnc(SCCCN2CC3CCN(c4ccccc4)C3C2)n1C` (stereo in doubt; 6b), the inhibitory constant (Ki) is 2 nM.

Another assay deals with Voltage-gated inwardly rectifying potassium channel KCNH2 (Homo sapiens, UniProt Q12809). Kind of assay: Inhibition of human ERG tail current expressed in HEK293 cells after 5 mins by patch clamp assay. (In patch-clamp work, channel activity is measured electrically.)
In general, IC50 refers to the concentration that inhibits the measured activity by half. In the case of `Cc1ncoc1-c1nnc(SCCCN2CC3CCN(c4ccc(F)cc4)C3C2)n1C` (stereo in doubt; 9b), the midpoint of inhibition, the IC50, lay at 794 nM.

In the next assay the target is T1, D(3) dopamine receptor. Kind of assay: Displacement of [3H]-spiperone from human dopamine D3 receptor expressed in CHO-K1 cell membranes after 90 mins by liquid scintillation counter method.
As to `Cn1c(SCCCN2CC3CCN(c4ccc(F)cc4)C3C2)nnc1C1CCOCC1` (stereo in doubt; 63a), the Ki is 0.398 nM.
Still for that read-out and setting: the result for `Cn1cc(-c2nnc(SCCCN3CC4CCN(c5ccc(C(F)(F)F)cc5)C4C3)n2C)cn1` (racemic) reads 3.16 nM; that for `Cn1c(SCCCN2CC3CCN(c4ccc(C(F)(F)F)cc4)C3C2)nnc1-c1nccs1` (racemic), 2 nM.
The same measure, in the same setting: in the case of `Cc1ncoc1-c1nnc(SCCCN2CC3CCN(c4ccc(OC(F)(F)F)cc4)C3C2)n1C` (racemic) it was 12.6 nM; in that of `Cn1c(SCCCN2CC3CCN(c4ccc(F)cc4)C3C2)nnc1-c1cc[nH]c(=O)c1` (racemic), 10 nM.
The same measure, in the same setting: in the case of `Cn1c(SCCCN2CC3CCN(c4ccc(F)cc4)C3C2)nnc1C1CCOCC1` (racemic) it was 0.316 nM; in that of `Cn1c(SCCCN2CC3CCN(c4ccc(F)cc4)C3C2)nnc1C1CCOCC1` (stereo in doubt; 63b), 0.398 nM.

A further assay has as its target D(2) dopamine receptor (Homo sapiens, UniProt P14416). Description: Displacement of [3H]-spiperone from human dopamine D2 receptor expressed in CHO-K1 cell membranes after 120 mins by liquid scintillation counter method. In general terms: Loss of bound radioactivity is the signal in a displacement assay; it reports binding, not function.
In the case of `Cn1c(SCCCN2CC3CCN(c4ccc(C(F)(F)F)cc4)C3C2)nnc1-c1cccnc1` (racemic), the Ki is 794 nM.
Still for that read-out and setting: in the case of `Cn1c(SCCCN2CC3CCN(c4cccc(OC(F)(F)F)c4)C3C2)nnc1-c1cnccn1` (racemic) it was 100 nM; in that of `Cn1c(SCCCN2CC3CCN(c4ccccc4)C3C2)nnc1C1CCOCC1` (stereo in doubt; 62b), 200 nM; in that of `COc1cccc(N2CCC3CN(CCCSc4nnc(-c5cnccn5)n4C)CC32)c1` (racemic), 398 nM.
For the compound `Cn1c(SCCCN2CC3CCN(c4ccccc4)C3C2)nnc1C1CCOCC1` (racemic), the affinity, expressed as Ki, was 251 nM.
Still for that read-out and setting: the result for `Cn1c(SCCCN2CC3CCN(c4ccccc4)C3C2)nnc1C1CCOCC1` (stereo in doubt; 62a) reads 794 nM.
